The record followed here is article PMC4831024 (Nature Communications, 2016).

This test deals with T1, Ku heterodimer (Ku70/Ku80), full length, recombinant human (human, UniProt P12956 1-609; P13010 1-732).
T1 construct: Ku70, human; Ku80, human; also called recombinant Ku; full-length Ku heterodimer; source: insect cells, baculovirus expression system, purified (immobilized metal-chelate chromatography, gel filtration)
Put plainly: pull-down; 50 nM Strep-tagged WRN protein immobilised on Streptavidin Mag Sepharose beads, 50 nM recombinant untagged Ku, 1 h at 4 °C; 20 mM Hepes pH 7.5, 150 mM NaCl, 5% glycerol, 0.5 mM TCEP, 0.05% IGEPAL-CA640; SDS–PAGE, Coomassie/Instant Blue. The settings on record: both partners purified.

B1: purified full-length recombinant Strep-tagged WRN (natural protein)
chain: not shown
notes: Werner syndrome protein (WRN), human, full length; source: insect cells, baculovirus expression system, purified (Strep-Tactin Superflow Plus cartridge, Superose 6 gel filtration)
Turning to B1, the binding result is listed as “binds”.
